{
  "source": "patent US9067896B2",
  "about": "“Crystalline forms of 3-(2,6-dichloro-3,5-dimethoxy-phenyl)-1-{6-[4-(4-ethyl-piperazin-1-yl) -phenylamino]-pyrimidin-4-yl}-1-methyl-urea and salts thereof” (Novartis AG, priority 2009, dated 2015)",
  "test": "Determination of solubility (equilibration in solvent, filtrate by HPLC)",
  "format": "physicochemical",
  "details": "initial solubility test",
  "method": "Excess free base (free base of Formula I), its phosphate salt (the monophosphoric acid salt of the free base), or another acid salt was equilibrated in solvents for 1 day at 25±0.5° C. The resultant slurry was filtered and the filtrate used for solubility determination by HPLC.\nSolubility of the monohydrate of the anhydrous and monohydrate free base was measured in various aqueous media (e.g., pH 6.8 buffer, pH 4.5 buffer, pH 1 buffer), including simulated and actual human fluids.\nThe human fluids were collected from 12 human subjects.\nSolubility studies of the phosphate salt were undertaken in aqueous media and in human fluids at 24 hours.",
  "data": [
    {"substance": "Malonate", "values": [
      {"measurement": "Solubility", "setting": "Water", "value": 920, "unit": "µg/mL"},
      {"measurement": "Solubility", "setting": "pH3 Buffer", "value": 3, "unit": "µg/mL"}
    ]}
  ]
}
